Measured values: PubChem BioAssay AID651958 (The Scripps Research Institute Molecular Screening Center, 2012)
The list shows a part of the results, in another mix than the full data. Some of these compounds have results that are not shown, active ones among them. The source made the active and inactive calls. No stated cut-off is given here; in the data, active means inhibition above about 30%; inactive means the rest.

test system: Crimean-Congo hemorrhagic fever virus L polyprotein viral ovarian tumor (vOTU) protease domain; assay: CCHFV vOTU protease inhibitors, primary screen, biochemical, Pep-AMC substrate, fluorescence (AID 651958); conditions: at 11.5 µM, hits give high values; further: 0% = vehicle wells with enzyme and 100% = no enzyme wells

SMILES	inhibition
Cc1ccc(C(=O)NCC2(N3CCCCC3)CCCCC2)cc1	inactive: -17.9%
CC(C)N1C(=O)CC2(CCN(CCOC(=O)C(O)(c3ccccc3)c3ccccc3)CC2)C1=O	inactive: 16.7%
COc1cc(SC)ccc1C(=O)NCC1(N(C)C)CCCCC1	inactive: 6.5%
CCN(CC)CC(C)C(C)OC(=O)C(O)(c1ccccc1)c1ccccc1 (stereo unspecified)	inactive: 9.71%
CN1[C@@H]2CC[C@H]1CC(OC(=O)C(O)(c1ccccc1)c1ccccc1)C2 (stereo partly specified)	inactive: 5.5%
O=C(NCC1(N2CCCCC2)CCCCC1)c1cc([N+](=O)[O-])ccc1Cl	inactive: 9.26%
O=C(NCC1(N2CCCCC2)CCCCC1)c1cccc(Br)c1	inactive: 5.48%
CCN1CCCC(OC(=O)C2(O)c3ccccc3C=Cc3ccccc32)C1 (stereo unspecified)	inactive: 7.77%
Cc1cc(C(=O)NCC2(N3CCCCC3)CCCCC2)ccc1[N+](=O)[O-]	inactive: -14.1%
COc1ccc(C(=O)NCC2(N(C)C)CCCCC2)cc1	inactive: -13.4%
O=C(NCC1(N2CCCCC2)CCCCC1)c1cc(F)c(F)cc1Cl	inactive: 10.8%
C=CCN1CCN(CCOC(=O)C(O)(c2ccccc2)c2ccccc2)CC1	inactive: -1.75%
CN(C)c1ccc(C(=O)NCC2(N(C)C)CCCCC2)cc1	inactive: 10.1%
CN(C)C1CCCC1OC(=O)C(O)(c1ccccc1)c1ccccc1 (stereo unspecified)	inactive: -0.65%
Cc1ccccc1C(=O)NCC1(N2CCCCC2)CCCCC1	inactive: -4.72%
O=C(NCC1(N2CCCCC2)CCCCC1)c1cccc(Cl)c1	inactive: -2.37%
COc1ccc(Cl)cc1C(=O)NCC1(N(C)C)CCCCC1	inactive: -3.83%
COc1cccc(C(=O)NCC2(N3CCCCC3)CCCCC2)c1	inactive: -0.8%
COc1cc(C(=O)NCC2(N(C)C)CCCCC2)c([N+](=O)[O-])cc1OC	inactive: 16.7%
CN(C)C1(CNC(=O)c2ccc(Br)cc2)CCCCC1	inactive: -9.4%
CN(C)c1cccc(C(=O)NCC2(N(C)C)CCCCC2)c1	inactive: -1.97%
O=C(OCCN1CCCC1)C(O)(c1ccccc1)c1ccccc1	inactive: 0.28%
CC(C)Oc1ccc(C(=O)NCC2(N(C)C)CCCCC2)cc1	inactive: -3.5%
COc1ccc(Br)c(C(=O)NCC2(N3CCCCC3)CCCCC2)c1	inactive: 3.9%
C=C(C)C#CC(O)(C(=O)OC1CCN(C)CC1)c1ccccc1 (stereo unspecified)	inactive: -9.26%
O=C(OC1CN2CCC1CC2)C(CO)(c1ccccc1)c1ccccc1 (stereo unspecified)	inactive: 2.28%
